We go through three molecules from patent US9499517B2, “Substituted prolines / piperidines as orexin receptor antagonists” (Eolas Therapeutics, Inc., priority 2012, dated 2016).

Protein sequences, listed by entry. Tags and fused reporters are not part of them.
UniProt O43613, whole entry: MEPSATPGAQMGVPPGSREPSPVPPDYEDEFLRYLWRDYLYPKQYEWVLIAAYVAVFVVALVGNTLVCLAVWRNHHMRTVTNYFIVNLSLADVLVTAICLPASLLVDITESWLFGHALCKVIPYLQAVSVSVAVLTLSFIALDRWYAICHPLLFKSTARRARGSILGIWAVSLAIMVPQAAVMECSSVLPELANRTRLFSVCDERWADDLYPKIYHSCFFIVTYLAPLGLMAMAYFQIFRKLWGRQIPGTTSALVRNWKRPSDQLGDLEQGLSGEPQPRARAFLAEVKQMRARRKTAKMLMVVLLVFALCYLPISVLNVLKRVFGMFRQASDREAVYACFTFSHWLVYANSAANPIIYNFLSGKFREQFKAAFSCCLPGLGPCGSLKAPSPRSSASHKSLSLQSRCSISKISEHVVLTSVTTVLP
UniProt O43614, whole entry: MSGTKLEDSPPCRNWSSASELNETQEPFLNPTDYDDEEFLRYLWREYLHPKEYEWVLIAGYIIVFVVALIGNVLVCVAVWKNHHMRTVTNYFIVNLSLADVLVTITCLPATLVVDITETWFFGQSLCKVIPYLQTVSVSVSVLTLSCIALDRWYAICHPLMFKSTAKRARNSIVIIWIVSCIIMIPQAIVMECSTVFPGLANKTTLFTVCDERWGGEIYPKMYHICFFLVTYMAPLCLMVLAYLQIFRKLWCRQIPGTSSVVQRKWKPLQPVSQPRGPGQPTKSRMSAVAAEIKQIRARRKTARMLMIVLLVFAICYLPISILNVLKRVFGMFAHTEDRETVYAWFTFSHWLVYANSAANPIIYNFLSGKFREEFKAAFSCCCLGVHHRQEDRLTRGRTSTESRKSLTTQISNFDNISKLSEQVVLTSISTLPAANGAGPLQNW

In one assay the target is T1, OX1 (Homo sapiens, UniProt O43613).
T1 construct: expressed in transfected cells; host or cells: CHO (CHO-OX1, kept under G418 or Blasticidin selection)
The experiment in a line: Orexin receptor cell-based functional assay: [Ca2+]i by FLIPR in CHO-OX1 cells, antagonism of EC90 of OXA.

In the next assay the target is T2, OX2 (Homo sapiens, UniProt O43614).
T2 construct: expressed in transfected cells; host or cells: CHO (CHO-OX2, kept under G418 or Blasticidin selection)
The experiment in a line: Orexin receptor cell-based functional assay: [Ca2+]i by FLIPR in CHO-OX2 cells, antagonism of EC90 of OXA. The following applies: Table 4.

`C[C@@H]1CCCN(C(=O)c2cc(F)ccc2-n2nccn2)[C@@H]1CNc1ncc(C(F)(F)F)cn1` [Example A207, (5-Fluoro-2-(2H-1,2,3-triazol-2-yl)phenyl)((2S,3R)-3-methyl-2-(((5-(trifluoromethyl)pyrimidin-2-yl)amino)methyl)piperidin-1-yl)methanone]: the “selectivity for OX1 over OX2” value on OX1 (relative to Examples 112 and 114 (Table 4)) is “improved selectivity for OX1 over OX2”.

`Cc1ccc(-c2ncccn2)c(C(=O)N2CCC[C@@H](C)[C@H]2CNc2ccc(C(F)(F)F)cn2)c1` (racemic) [Example 112, rac-((2S,3R)-3-methyl-2-(((5-(trifluoromethyl)pyridin-2-yl)amino)methyl)piperidin-1-yl)(5-methyl-2-(pyrimidin-2-yl)phenyl)methanone]: the IC50 (in general, the concentration that inhibits the measured activity by half) against OX2 was determined as 2.9 µM. As to `Cc1ccc(-n2nccn2)c(C(=O)N2CCC[C@@H](C)[C@H]2CNc2ccc(C(F)(F)F)cn2)c1` (racemic) [Example 114, rac-((2S,3R)-3-methyl-2-(((5-(trifluoromethyl)pyridin-2-yl)amino)methyl)piperidin-1-yl)(5-methyl-2-(2H-1,2,3-triazol-2-yl)phenyl)methanone], the IC50 against OX2 worked out at 0.27 µM; against OX1 (Table 4), 0.005 µM.
